Target: human β-secretase (sBACE-Fc, soluble part AA 1-AA 460) (Homo sapiens (Human), UniProt P56817)
Experiment: TR-FRET assay
Format: biochemical
Conditions: TruPoint BACE1 substrate 100 nM, pH 4.5, 15 min at r.t.
Experimental: The β-secretase enzyme used in the TR-FRET is prepared as follows:
The cDNA for the soluble part of the human 13-Secretase (AA 1-AA 460) was cloned using the ASP2-Fc10-1-IRES-GFP-neoK mammalian expression vector. The gene was fused to the Fc domain of IgG1 (affinity tag) and stably cloned into HEK 293 cells.
The enzyme (truncated form) was diluted to 6 μg/mL (stock 1.3 mg/mL) and the TruPoint BACE1 Substrate to 200 nM (stock 120 μM) in reaction buffer (NaAcetate, chaps, triton x-100, EDTA pH4.5). The robotic systems Biomek FX and Velocity 11 were used for all liquid handling and the enzyme and substrate solutions were kept on ice until they were placed in the robotic system. Enzyme (9 μL) was added to the plate then 1 μL of compound in dimethylsulphoxide was added, mixed and pre-incubated for 10 minutes. Substrate (10 μL) was then added, mixed and the reaction proceeded for 15 minutes at r.t. The reaction was stopped with the addition of Stop solution (7 μL, NaAcetate, pH 9). The fluorescence of the product was measured on a Victor II plate reader with an excitation wavelength of 340 nm and an emission wavelength of 615 nm. The assay was performed in a Costar 384 well round bottom, low volume, non-binding surface plate (Corning #3676). The final concentration of the enzyme was 2.7 μg/mL; the final concentration of substrate was 100 nM (Km of ˜250 nM). […]

Sequences of proteins named here, by UniProt entry; tags and fusion partners are left off. Residues count along the entry.
UniProt P56817, 22-460: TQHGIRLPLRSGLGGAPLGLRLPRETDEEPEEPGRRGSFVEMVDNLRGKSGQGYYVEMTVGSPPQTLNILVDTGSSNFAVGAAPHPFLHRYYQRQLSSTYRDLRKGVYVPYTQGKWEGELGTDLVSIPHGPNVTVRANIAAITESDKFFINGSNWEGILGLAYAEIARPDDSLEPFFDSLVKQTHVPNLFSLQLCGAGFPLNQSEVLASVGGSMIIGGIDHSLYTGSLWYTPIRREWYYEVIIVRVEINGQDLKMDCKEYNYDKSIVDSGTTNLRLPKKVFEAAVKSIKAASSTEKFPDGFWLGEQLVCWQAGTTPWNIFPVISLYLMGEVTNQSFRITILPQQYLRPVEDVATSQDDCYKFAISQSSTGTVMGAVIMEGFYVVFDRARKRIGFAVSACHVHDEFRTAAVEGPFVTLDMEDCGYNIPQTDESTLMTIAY

IC50	Structure (SMILES)
37 nM	[2H]C([2H])([2H])O[C@H]1CC[C@]2(CC1)Cc1ccc(OCCCF)cc1C21C=C(F)C(N)=N1 (single isomer, unassigned) [Example 10, 4″-fluoro-6′-(3-fluoropropoxy)-4-[(2H3)methyloxy]-3′H-dispiro[cyclohexane-1,2′-indene-1′,2″-pyrrol]-5″-amine]
1220 nM	[2H]C([2H])([2H])O[C@H]1CC[C@@]2(CC1)Cc1ccc(OCCCF)cc1C21C=C(F)C(N)=N1 (single isomer, unassigned) [Example 11, 4″-fluoro-6′-(3-fluoropropoxy)-4-[(2H3)methyloxy]-3′H-dispiro[cyclohexane-1,2′-indene-1′,2″-pyrrol]-5″-amine]

From patent publication US9650336B2, “Mono-fluoro beta-secretase inhibitors” (ASTRAZENECA AB, priority 2011, dated 2017)
